{"source": "patent US8263065B2", "about": "“Tumor suppression using human placental perfusate and human placenta-derived intermediate natural killer cells” (Anthrogenesis Corporation, priority 2007, dated 2012)", "tested_on": "KG-1a cells", "assay": "CFSE cytotoxicity of total nucleated cells from HPP or UCB", "format": "cell-based, Human", "details": "100 U/mL or 1000 U/mL IL-2 for 24 hours before KG-1a; ratio of 6.25 and above", "procedure": "Total nucleated cells from HPP or umbilical cord blood (UCB) were mixed with KG-1a cells at ratios of 1:1, 5:1, 10:1, 20:1 or 100:1. After 24 h or 48 h incubation, cells were harvested and examined for the presence of CFSE by FACS analysis (BD FACSCanto, BD Bioscience). Tumor cells cultured alone were used as controls. Cytotoxicity was defined as: (1−CFSESample/CFSE^Control)*100%.\nIn a separate experiment, the cytotoxicity of total nucleated cells from HPP was compared to that of total nucleated cells from umbilical cord blood. Matched TNC-HPP or UCB was mixed with KG-1a cells at ratios of 0.78:1, 1.56:1, 3.12:1, 6.25:1, 12.5:1, 25:1, 50:1 or 100:1.\nIn another experiment, 24 hours prior to incubation with KG-1a cells, TNC—HPP was stimulated with 100 U/mL, or 1000 U/mL of IL-2, while HPP cultured with RPMI medium was used as control.", "data": [{"substance": "IL-2: interleukin-2 (IL-2), cytokine used to stimulate perfusate cells", "values": [{"measurement": "effect of IL-2 stimulation on cytotoxicity of TNC-HPP", "result": "appears to increase the cytotoxicity"}]}]}
